Assay: Phase 1 relative bioavailability study: plasma pharmacokinetics of midazolam, 1-hydroxymidazolam, ketamine and norketamine
Settings: Treatment D: ketamine 18 mg IV; mean
Experimental: PK analysis was performed using noncompartmental methods in Phoenix WinNonlin® (Version 8.1, Certara, L.P.) in conjunction with the internet-accessible implementation of the Pharsight® Knowledgebase Server™ (PKSO; Version 4.0.4, Certara, L.P). PKSO provides protected and structured storage, audit trails, and version control for study data, analyses, and related files, supporting 21 CFR Part 11 compliance. The analysis was performed in accordance with the Statistical Analysis Plan (Version 1.0, 5 Jan. 2021).
During the PK analysis, concentrations below the limit of quantitation (BLQ) up to the time of the first quantifiable concentration were treated as zero. Embedded (values between 2 quantifiable concentrations) and terminal BLQ concentrations were treated as “missing”. Calculation of the PK characteristics were based on actual elapsed times [h] (relative to time of dose).
All PK analyses were performed on the data from the PK Analysis Population. […] The ANOVA model included factors for sequence, subject within sequence, treatment, and period.

CNC1(c2ccccc2Cl)CCCCC1=O (stereo not shown) [Ketamine, 2-(2-chlorophenyl)-2-(methylamino)cyclohexanone]
Tlast, ketamine: 23.7 h
